Results reported in US7198811B2, “Compositions for the preservation of fruits and vegetables” (University of Guelph, priority 2002, dated 2007).

Tested on: Vista Cherries
Experiment: Postharvest dips of compositions or individual components on Vista cherries
Type: in vivo
Conditions: dipped 2.5 min, concentration as printed per treatment; stored 4° C. in air

| Compound | Soluble Solids (%) 4 weeks | Soluble Solids (%) 2 weeks |
| --- | --- | --- |
| c1ccc(CNc2ncnc3nc[nH]c23)cc1 [BA, benzyladenine] | 16.4% |  |
| CC(C)=CCC/C(C)=C/CO [Geraniol] |  | 16.8% |
| CC(=O)OC/C=C(\C)CCC=C(C)C [Geranyl Acetate] | 14.6% |  |
